Experiment: Toxicity test, peroral administration for 4 days
Conditions: male Wistar rats, daily dose 100 mg/kg

## 5-benzyl-4H[6]-azaindolo[3,2,1-ij]quinolin-4-one
  death of animals until the next day after the end of administration: none of the animals were found to be dead

— US6476021B1 (priority 1997, dated 2002)
